{
  "source": "patent US20180016554A1",
  "about": "“HUMAN SERUM ALBUMIN-CONTAINING CULTURE MEDIUM FOR GROWTH OF NEURAL STEM CELLS” (AJINOMOTO CO., INC., priority 2015, published 2018)",
  "type_in_all_cases": "cell-based",
  "key": {"[1]": {"system": "neurosphere (neural stem cells and/or neural progenitor cells induced from human pluripotent stem cells)", "assay": "Functional evaluation of human serum albumin: morphology of neurospheres after 14 days' suspension culture", "settings": "14 days' culturing; for morphology of the neurosphere formed: microscope", "procedure": "Media hormone mix (MHM) medium added with B27 supplement (1x; Life Technologies), bFGF (PeproTech inc.), hLIF (Millipore), Y27632 (Wako Pure Chemical Industries, Ltd.) was produced, and iPS cells dispersed in TrypLE™ Select to single cells were cultured in suspension in the medium under 37° C., 5% CO2, 4% O2 environment. The medium was exchanged every 7 days. After culturing, neural stem cells and/or neural progenitor cells formed neurosphere which is a spherical cell aggregate.\nMedia hormone mix (MHM) medium (Life Technologies) added with B27 supplement (1×; Life Technologies), bFGF (final concentration 20 ng/mL; PeproTech inc.), hLIF (final concentration 10 ng/mL; Millipore) was produced, and neural stem cells and/or neural progenitor cells induced from human pluripotent stem cells were cultured in suspension in the medium under 37° C., 5% CO2, 4% O2 environment. The medium was exchanged every 7 days. After culturing, neural stem cells and/or neural progenitor cells formed neurosphere which is a spherical cell aggregate.\nTrypLE Select (Life Technologies) was used for passaging the neurosphere. The medium was removed from the culture dish during neurosphere culture and replaced with TrypLE Select. The cells were incubated in TrypLE Select at 37° C. for 10 min, and thereafter pipetted to give single cells. The dispersed cells were seeded in the above-mentioned medium at 1.0×10^5 cells/mL, and cultured in suspension in the medium under 37° C., 5% CO2 environment.\nUsing the neurosphere cultured in (2), functional evaluation of the medium was performed. Media hormone mix (MHM) medium (Life Technologies) added with bFGF (final concentration 20 ng/mL) and hLIF (final concentration 10 ng/mL) was produced and used as a test basal medium. Neurosphere was cultured in the test basal medium added with human serum albumin (Essentially fatty acid free (−0.005%), Sigma Aldrich) at a final concentration of 0.2, 1 or 2.1 mg/mL (human serum albumin-added medium) or a medium without the addition (control medium), and functional evaluation of the human serum albumin was performed. The medium was exchanged every 7 days and, after 14 days' culturing, the morphology of the neurosphere formed was observed under a microscope. (Before the start of the culture in (3), the medium used before culturing in (3) was sufficiently diluted and removed to reduce incorporation of the medium as much as possible.)"}, "[2]": {"system": "neurosphere derived from human pluripotent stem cells", "assay": "Differentiation induction into nerve cells of neurospheres cultured in human serum albumin-added medium, βIII tubulin immunostaining", "settings": "neurosphere cultured 14 days in 2.1 mg/mL human serum albumin-added medium, then 20 days differentiation induction culture", "procedure": "Similar to Example 1, neurosphere derived from human pluripotent stem cells was cultured in 2.1 mg/mL human serum albumin-added medium for 14 days, and differentiation induction culture was performed. For the differentiation induction culture, the neurosphere cultured in human serum albumin-added medium was subjected to a dispersion treatment. TrypLE Select (Life Technologies) was used for the dispersion treatment. The medium was removed from the culture dish during neurosphere culture and replaced with TrypLE Select. The cells were incubated in TrypLE Select at 37° C. for 10 min, and thereafter pipetted to give single cells. The number of the cells was measured using a hemocytometer. The dispersed cells were seeded in a 48 well plate, coated with poly-L-ornithine/fibronectin, at 1.5×10^5 cells/well, and cultured in Media hormone mix (MHM) medium (Life Technologies) added with B27 supplement (1×; Life Technologies) for 20 days. Culturing was performed under 37° C., 5% CO2 environment, and the medium was exchanged every two days.\nAfter culturing, the cells were fixed and immunostained using antibody against βIII tubulin as a nerve cell marker."}, "[3]": {"system": "LtNES cells induced from human pluripotent stem cells", "assay": "Functional evaluation of human serum albumin: cell number of LtNES cells after culture", "settings": "4 to 5 days' culturing", "procedure": "EB was formed from iPS cells, and cultured in a medium obtained by adding transferrin (final concentration 0.5 to 10 μg/ml) and ethanolamine (final concentration 5 to 50 μM) to a medium corresponding to a composition of E6 medium (Life Technologies or STEMCELL Technologies) without ascorbic acid and transferrin for 4 days. EB was seeded in a dish coated with poly-L-ornithine (PO), cultured for about 10 days in the above-mentioned medium, and formation of a rosette-like structure was confirmed. The rosette part was removed, and subjected as neurosphere to suspension culture in the above-mentioned medium for about 7 days. The neurosphere was dispersed in trypsin/EDTA, and cultured in the above-mentioned medium on a dish coated with PO/laminin to give LtNES cells. The LtNES cells are composed of a mixture of neural stem cells and neural progenitor cells.\nTransferrin (final concentration 0.5 to 10 μg/ml), ethanolamine (final concentration 5 to 50 μM) and bFGF (final concentration 5 to 100 ng/ml) were added to a medium corresponding to a composition of E6 medium (Life Technologies or STEMCELL Technologies) without ascorbic acid and transferrin to produce a test basal medium.\nAlbumin derived from human serum (Sigma Aldrich) was added to the test basal medium at a final concentration of 0, 0.21, 1, 2.1 mg/ml to give test media.\nUsing each test medium, LtNES cells (1.5×10^5 cells) induced from human pluripotent stem cells were cultured. The cells were cultured in an incubator at 37° C., 5% CO2 atmosphere. The medium was exchanged every two days, and the cells were cultured for 4 to 5 days. After culturing, cell dispersion treatment was performed by adding TrypLE Select instead of the test medium and then incubating it at 37° C. for 1 min. TrypLE Select was diluted with the medium, pipetting was performed to give single cells, and the number of the cells was counted and evaluated. Dead cells were stained with Trypan Blue (Life Technologies Inc.) and the cell number was measured by hemocytometer."}},
  "note": "Entries after “also recorded” stand apart in the source; their conditions may differ.",
  "data": [
    {"substance": "human serum albumin", "values": [
      {"measurement": "morphology of the neurosphere formed", "setting": "[1]; 0.2 mg/mL human serum albumin in medium", "value": "showed a cell form with an elongated protrusion seen in a part of the differentiated cells; also recorded: partly lost a neurosphere-like form"},
      {"measurement": "morphology of the neurosphere formed", "setting": "[1]; 1 mg/mL human serum albumin in medium", "value": "maintained the spherical form; also recorded: maintained good neurosphere form"},
      {"measurement": "morphology of the neurosphere formed", "setting": "[1]; 2.1 mg/mL human serum albumin in medium", "value": "maintained the spherical form; also recorded: maintained good neurosphere form"},
      {"measurement": "differentiation suppressive tendency on the neurosphere", "setting": "[1]; 0.2, 1, 2.1 mg/mL human serum albumin", "value": "concentration-dependent differentiation suppressive tendency"},
      {"measurement": "βIII tubulin positive nerve cells after differentiation induction culture", "setting": "[2]", "value": "contained many βIII tubulin positive nerve cells; also recorded: Many βIII tubulin (green)-positive nerve cells were observed"},
      {"measurement": "cell number (proliferation) of LtNES cells", "setting": "[3]; 0.21 mg/ml human serum albumin", "value": "showed good proliferation; also recorded: showed good growth"},
      {"measurement": "cell number (proliferation) of LtNES cells", "setting": "[3]; 1 mg/ml human serum albumin", "value": "cell number increased most; also recorded: number of cells increased most"},
      {"measurement": "cell number (proliferation) of LtNES cells", "setting": "[3]; 2.1 mg/ml human serum albumin", "value": "showed good proliferation; also recorded: showed good growth"}
    ]}
  ]
}
